Measured values taken from ChEMBL document CHEMBL1137822 (J Med Chem, 2004).

By UniProt entry, the sequences of proteins in these tests, tags left out.
UniProt P06276, whole entry: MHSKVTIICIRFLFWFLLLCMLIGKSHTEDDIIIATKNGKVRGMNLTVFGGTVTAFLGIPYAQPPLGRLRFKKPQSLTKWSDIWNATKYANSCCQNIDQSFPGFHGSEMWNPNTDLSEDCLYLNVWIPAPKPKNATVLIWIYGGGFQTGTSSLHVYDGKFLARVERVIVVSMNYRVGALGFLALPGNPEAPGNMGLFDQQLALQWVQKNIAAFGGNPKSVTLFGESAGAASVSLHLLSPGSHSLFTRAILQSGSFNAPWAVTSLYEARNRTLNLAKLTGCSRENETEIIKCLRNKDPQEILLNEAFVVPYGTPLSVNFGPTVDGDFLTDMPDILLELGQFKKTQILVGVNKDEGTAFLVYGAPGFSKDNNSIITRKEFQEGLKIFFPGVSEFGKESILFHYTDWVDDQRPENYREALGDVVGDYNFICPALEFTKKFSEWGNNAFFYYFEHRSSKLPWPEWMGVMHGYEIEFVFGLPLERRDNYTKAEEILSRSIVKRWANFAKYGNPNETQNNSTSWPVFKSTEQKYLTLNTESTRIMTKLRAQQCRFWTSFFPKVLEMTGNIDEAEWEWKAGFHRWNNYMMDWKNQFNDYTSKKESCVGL

Target: Cholinesterase (Homo sapiens, UniProt P06276)
Assay: Inhibitory concentration against human serum butyrylcholinesterase activity

Compound `CCN(C)C(=O)Oc1cccc([C@H](C)N(C)C)c1` [RIVASTIGMINE] has an IC50 of 301 nM.
